# Data: patent US11986529B2, “Pharmaceutical compositions and related methods of delivery” (priority 2008, dated 2024)
# Test: Formulated cargo versus cargo given concomitantly with mock formulation, rat jejunum
# Conditions: AUC of cargo in basic formulation versus cargo in aqueous solution given concomitantly with mock formulation; jejunum of non-anesthetized rats
substance,measurement,value
Dextran,Formulated versus unformulated (fold activity),1.7 fold
